Assay [1] deals with Serotonin 3 (5-HT3) receptor (Rattus norvegicus, UniProt P35563+Q9JJ16). Kind of assay: In vitro displacement of [3H]-LY 278584 from rat cerebral cortex 5-hydroxytryptamine 3 receptor. (Loss of bound radioactivity is the signal in a displacement assay; it reports binding, not function.)
Assay [2] addresses 5-hydroxytryptamine receptor 4 (Rattus norvegicus, UniProt Q62758). Kind of assay: Displacement of [3H]GR-113808 from rat striatum 5-hydroxytryptamine 4 receptor.

Sequences of proteins named here, by UniProt entry; tags and fusion partners are left off. A change or cut given only in a name is not applied to a line headed by its entry. Residues count along the entry.
UniProt P35563, 24-483 limits assumed: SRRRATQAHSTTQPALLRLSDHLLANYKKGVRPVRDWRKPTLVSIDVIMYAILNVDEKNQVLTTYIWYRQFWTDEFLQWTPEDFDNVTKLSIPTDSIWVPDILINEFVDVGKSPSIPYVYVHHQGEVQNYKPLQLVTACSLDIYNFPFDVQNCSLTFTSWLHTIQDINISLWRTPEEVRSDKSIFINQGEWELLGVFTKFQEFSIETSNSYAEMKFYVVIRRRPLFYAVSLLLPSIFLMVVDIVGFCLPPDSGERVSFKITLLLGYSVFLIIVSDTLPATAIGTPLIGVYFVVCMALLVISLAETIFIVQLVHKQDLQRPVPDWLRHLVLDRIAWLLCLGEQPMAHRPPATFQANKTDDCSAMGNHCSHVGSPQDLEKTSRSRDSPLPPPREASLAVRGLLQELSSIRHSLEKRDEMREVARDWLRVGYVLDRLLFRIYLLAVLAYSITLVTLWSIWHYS
UniProt Q9JJ16, 22-437 limits assumed: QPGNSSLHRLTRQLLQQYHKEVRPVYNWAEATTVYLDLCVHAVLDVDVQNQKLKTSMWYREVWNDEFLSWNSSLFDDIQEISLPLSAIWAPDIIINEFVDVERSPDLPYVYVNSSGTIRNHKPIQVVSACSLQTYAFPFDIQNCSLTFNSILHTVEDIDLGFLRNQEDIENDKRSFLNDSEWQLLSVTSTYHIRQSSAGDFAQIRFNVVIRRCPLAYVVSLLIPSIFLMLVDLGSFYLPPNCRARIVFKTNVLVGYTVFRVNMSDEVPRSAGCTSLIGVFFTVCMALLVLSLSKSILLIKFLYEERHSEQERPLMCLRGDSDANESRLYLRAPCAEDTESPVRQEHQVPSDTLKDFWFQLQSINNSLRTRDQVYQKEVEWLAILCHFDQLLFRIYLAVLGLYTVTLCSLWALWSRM
UniProt Q62758: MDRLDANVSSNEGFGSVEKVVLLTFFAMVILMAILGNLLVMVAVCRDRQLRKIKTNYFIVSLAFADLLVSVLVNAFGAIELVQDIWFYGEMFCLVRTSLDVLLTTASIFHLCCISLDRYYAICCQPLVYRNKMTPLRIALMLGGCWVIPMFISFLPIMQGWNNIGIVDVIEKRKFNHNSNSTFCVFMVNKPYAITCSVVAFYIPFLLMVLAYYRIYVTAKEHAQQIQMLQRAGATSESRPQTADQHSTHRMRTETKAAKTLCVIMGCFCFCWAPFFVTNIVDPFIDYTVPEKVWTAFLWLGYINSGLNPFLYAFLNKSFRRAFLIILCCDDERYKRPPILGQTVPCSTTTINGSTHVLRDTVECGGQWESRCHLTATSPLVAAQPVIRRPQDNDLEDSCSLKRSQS

This passage reports Ki results from ChEMBL document CHEMBL1152116, “Novel benzimidazole-4-carboxylic acid derivatives as potent and selective 5-HT3 receptor ligands” (Bioorg Med Chem Lett, 1996).

The structures appear in SMILES notation.

Take `O=C(OC1CN2CCC1CC2)c1cccc2nc[nH]c12` (centres undefined): the Ki in assay [1] is 0.185 µM; in assay [2], greater than 10 µM.

`O=C(OC1CN2CCC1CC2)c1cc(Cl)cc2[nH]cnc12` (centres undefined): the Ki in assay [1] is 0.0093 µM; in assay [2] it was 0.44 µM.

In general, Ki refers to the dissociation constant of the complex between target and ligand, obtained from inhibition or displacement.
